According to PubChem BioAssay AID2517 (National Center for Advancing Translational Sciences (NCATS), 2012):
This is a selection; strong and weak results do not stand in their true shares. Results filed as inconclusive are left out. The source made the active and inactive calls. Calls follow the shape of the dose curve; as a rule, active = well fitted inhibition curve with a large enough effect; inconclusive = small, poorly fitted or top-dose-only effect; inactive = no such curve, though single readings can be large or run the other way.

The chains behind the UniProt entries cited, without tags or fusion partners.
UniProt P27695, whole entry, looked up: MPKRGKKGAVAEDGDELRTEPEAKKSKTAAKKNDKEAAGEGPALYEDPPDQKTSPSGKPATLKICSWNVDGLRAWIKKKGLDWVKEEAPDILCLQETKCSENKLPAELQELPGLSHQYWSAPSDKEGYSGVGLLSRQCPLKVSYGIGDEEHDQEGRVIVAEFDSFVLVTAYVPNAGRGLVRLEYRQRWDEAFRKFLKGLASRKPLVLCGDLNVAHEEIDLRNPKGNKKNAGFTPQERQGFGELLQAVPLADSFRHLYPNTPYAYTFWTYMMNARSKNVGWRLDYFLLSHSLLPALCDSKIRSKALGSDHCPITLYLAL

target: DNA repair nuclease/redox regulator APEX1 (Homo sapiens) (UniProt P27695); test: qHTS Assay for Inhibitors of the Human Apurinic/apyrimidinic Endonuclease 1 (APE1); conditions: recombinant APE1, TAMRA/BHQ-2 abasic DNA cleavage fluorescence; series mostly up to 65.8 µM; activity change, negative = inhibition: at the top concentration; also: nearly all actives have a fitted effect of over 55% in size;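 as to activity change, negative = inhibition: plate controls were vehicle for no effect and reference inhibitor for full effect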
Potency is read from the fitted curve at half-maximal effect.

Row | Compound | activity change, negative = inhibition | Potency
1 | CN(C(=O)Cc1ccc(Cl)c(Cl)c1)[C@H]1CC[C@@]2(CCCO2)C[C@@H]1N1CCCC1 | inactive: 5.96% | 
2 | O=[N+]([O-])c1ccc2c(c1)nnn2O | inactive: 13.4% | 
3 | CN(C(=O)Cc1ccccc1)[C@@H]1CC[C@]2(CCCO2)C[C@H]1N1CCCC1 |  | inactive
4 | CCOP1(=S)c2c(C)nn(CCC#N)c2N=C(c2ccc(F)cc2)N1C (stereo not drawn) | inactive: -4.22% | 
5 | N#CCCN(C(=O)COC(=O)C(O)(c1ccccc1)c1ccccc1)c1ccc(F)cc1 | inactive: 10.8% | 
6 | O=[N+]([O-])CC(O)c1ccc([N+](=O)[O-])cc1 (stereo not drawn) | inactive: 15.9% | 
7 | O=C(O)COc1ccc([As](=O)(O)O)cc1[N+](=O)[O-] | inactive: 49.2% | 
8 | Nc1ccccc1[As](=O)(O)c1ccccc1 | inactive: -5.04% | 
9 | CS(=O)(=O)c1cc([N+](=O)[O-])c2no[n+]([O-])c2c1 | inactive: 9.58% | 
10 | O=P(Nc1nccs1)(Oc1ccccc1)Oc1ccccc1 | inactive: 9.65% | 
11 | CCOP1(=S)c2c(C)nn(CCC#N)c2N=C(c2ccccc2F)N1C (stereo not drawn) | inactive: -0.324% | 
12 | CCOP(=O)(Nc1cccc2ccccc12)OCC | inactive: -2.59% | 
13 | COc1cc(C2NCCC3(OCCO3)C2(C)C)cc(OC)c1OC (stereo not drawn) | inactive: -3.24% | 
14 | CCCOP(=S)(Nc1nc(N)cc(=O)[nH]1)OCCC | inactive: 11.9% | 
15 | Cc1ccc(NCCc2c([N+](=O)[O-])cc([N+](=O)[O-])cc2[N+](=O)[O-])cc1 | inactive: 2.48% | 
16 | Nc1cccc2c([As](=O)(O)O)cccc12 | inactive: -3.01% | 
17 | O=[As](O)(c1cccc(O)c1)c1cccc(O)c1 | inactive: -1.32% | 
18 | Cc1cccc(OCC(=O)OC2CN3CCC2CC3)c1 (stereo not drawn) | inactive: 6.23% | 
19 | CS(=O)(=O)c1ccc(Cl)c(NC(=O)COC(=O)C(O)(c2ccccc2)c2ccccc2)c1 | inactive: 12.3% | 
20 | COc1cc(C(=O)NCC2(N3CCOCC3)CCCCC2)cc(Cl)c1OC(C)C | inactive: 12.4% | 
21 | CN(C(=O)Cc1ccc(Cl)c(Cl)c1)[C@@H]1CC[C@]2(CCCO2)C[C@H]1N1CCCC1 | inactive: -2.91% | 
22 | O=C(OC1CN2CCC1CC2)c1ccc(Cl)cc1 (stereo not drawn) | inactive: 11.2% | 
23 | O=[As](O)(c1ccccc1Br)c1ccccc1Br | inactive: -0.931% | 

Row | Compound | activity change, negative = inhibition | Potency
24 | CC(C)/C=N\N=C(\N)N[N+](=O)[O-] | inactive: -4.79% | 
25 | COc1ccccc1CNC(=O)COC(=O)C(O)(c1ccccc1)c1ccccc1 | inactive: 4.72% | 
26 | CC(C)(C)C(=O)NC(Sc1ncccn1)C(Cl)(Cl)Cl (stereo not drawn) | inactive: -4.9% | 
27 | Clc1n[nH]nc1-c1nn[nH][15n]1 | inactive: 1.91% | 
28 | CN(CCCl)Cc1cc(Cl)c(NC2=NCCN2)c(Cl)c1 |  | inactive
29 | CCOP(=O)(Nc1ccc(C)cn1)OCC | inactive: 0.379% | 
30 | CCOP(=O)(NC(=NC(C)c1ccccc1)NC(C)c1ccccc1)OCC (stereo not drawn) | inactive: 23% | 
31 | CCC1=CC2Cc3nc4ccc(Cl)cc4c(N)c3C(C1)C2 (stereo not drawn) | inactive: 29.8% | 
32 | O=P1(Nc2ccccn2)COc2ccccc2OC1 | inactive: -2.83% | 
33 | NS(=O)(=O)c1cccc(NC(=O)COC(=O)C(O)(c2ccccc2)c2ccccc2)c1 | inactive: -2.92% | 
34 | O=P1(Nc2ccc(Br)cn2)COc2ccccc2OC1 | inactive: -2.21% | 
35 | Cc1ccc(OCC(=O)OC2CN3CCC2CC3)cc1 (stereo not drawn) | inactive: -0.725% | 
36 | O=[As](O)(c1cccs1)c1cccs1 | inactive: -9.34% | 
37 | Nc1cccc([As](=O)(O)c2ccccc2)c1 | inactive: -4% | 
38 | O=P1(Nc2ncccn2)COc2ccccc2OC1 | inactive: 1.85% | 
39 | O=C(/C=C/c1ccccc1)OC1CN2CCC1CC2 (stereo not drawn) | inactive: 10.4% | 
40 | CN(C)C1(CNC(=O)c2ccc(S(C)(=O)=O)cc2)CCCCC1 | inactive: 0.0656% | 
41 | Cc1ccc(C(=O)OC2CN3CCC2CC3)cc1 (stereo not drawn) | inactive: -15.7% | 
42 | CC1CCC(C(C)C)C(OP(=O)(Nc2ccccn2)c2ccccc2)C1 (stereo not drawn) | inactive: -1.53% | 
43 | Cc1nn(-c2ccccc2)c2c1P(=O)(N1CCOCC1)N(C)C(c1ccccc1)=N2 (stereo not drawn) | inactive: -2.13% | 
44 | O=[N+]([O-])c1ccc(Nc2ccc(Oc3ccc([N+](=O)[O-])cc3[N+](=O)[O-])cc2)c([N+](=O)[O-])c1 | inactive: -1.17% | 
45 | CN(N=O)C(=N)N[N+](=O)[O-] | inactive: -3.19% | 
46 | Cc1cc(SC(NC=O)C(Cl)(Cl)Cl)ncn1 (stereo not drawn) | inactive: 4.19% | 

Row | Compound | activity change, negative = inhibition | Potency
47 | O=P(Nc1ccccn1)(c1cccc2ccccc12)c1cccc2ccccc12 | inactive: 0.91% | 
48 | CCOC(=O)Nc1cccc([As](=O)(O)O)c1 | inactive: 0.0299% | 
49 | Cc1cc(SC(NC(=O)c2ccccc2)C(Cl)(Cl)Cl)nc(C(C)C)n1 (stereo not drawn) | inactive: -0.127% | 
50 | CCCCOc1ccc(C(=O)NCC2(N3CCCCC3)CCCCC2)cc1OC | inactive: 52.7% | 
51 | CCOC(=O)Nc1ccc([As](=O)(O)O)c(O)c1 |  | active: 224 nM
52 | CCC(C)N(CC(C)C)C(=S)SC(NC(C)=O)C(Cl)(Cl)Cl (stereo not drawn) | inactive: 1.62% | 
53 | CCOC(=O)c1ccc(NC(=O)C(C)(CCl)SC)cc1 (stereo not drawn) | inactive: 1.64% | 
54 | O=C(OC1CN2CCC1CC2)c1cccc([N+](=O)[O-])c1 (stereo not drawn) | inactive: -3.36% | 
55 | O=C(Nc1ccncc1[N+](=O)[O-])c1ccc([N+](=O)[O-])cc1[N+](=O)[O-] | inactive: 32.7% | 
56 | O=C(COc1ccccc1)OC1CN2CCC1CC2 (stereo not drawn) | inactive: -3.65% | 
57 | COP1(=S)c2c(C)nn(CCC#N)c2N=C(c2ccc(F)cc2)N1C (stereo not drawn) | inactive: -0.962% | 
58 | COc1cc(I)ccc1[As](=O)(O)O | inactive: -2.63% | 
59 | COc1ccc2nc(NP(=O)(c3ccccc3)c3ccccc3)sc2c1 | inactive: -4.34% | 
60 | Cc1cc(=O)[nH]c(N[N+](=O)[O-])n1 | inactive: 2.32% | 
61 | O=C(OC1CN2CCC1CC2)C12CC3CC(CC(C3)C1)C2 (stereo not drawn) | inactive: 9.47% | 
62 | Cc1c2c(nc3ccccc13)SC(C(Cl)Cl)C2 (stereo not drawn) | inactive: 0.317% | 
63 | CCN(CC)C(=S)SC(NC=O)C(Cl)(Cl)Cl (stereo not drawn) | inactive: 0.719% | 
64 | CC(C)NC(=O)NP(=O)(Oc1ccccc1)Oc1ccccc1 | inactive: 1.99% | 
65 | CC(C)c1ccc(OP(=O)(Nc2ccccn2)Oc2ccccc2F)cc1 (stereo not drawn) | inactive: 0.652% | 
66 | ClCCSc1nnc(-c2cccnc2)o1 | inactive: 10.3% | 
67 | Cc1ccc2nc3c(c(C)c2c1)CC(C(Cl)Cl)S3 (stereo not drawn) | inactive: 0.343% | 
68 | Cc1ccc(OP(=O)(Nc2ccc([N+](=O)[O-])cn2)Oc2ccc(C)cc2)cc1 | inactive: 59.8% | 
